Ab-91 heavy chain CDR variants: yeast mating affinities

Target: peptide PDVDLGDISGINAS, taken from heptad repeat 2 (HR2) of SARS-CoV-2 spike.

Ab-91 is the parent antibody, in scFv form: VL, then the linker GGGGSGGGGSGGGGS, then VH. The light chain is unchanged in all variants.
VL: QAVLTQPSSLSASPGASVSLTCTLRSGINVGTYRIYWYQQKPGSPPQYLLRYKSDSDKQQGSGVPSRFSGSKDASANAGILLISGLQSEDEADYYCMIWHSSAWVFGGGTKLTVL
VH: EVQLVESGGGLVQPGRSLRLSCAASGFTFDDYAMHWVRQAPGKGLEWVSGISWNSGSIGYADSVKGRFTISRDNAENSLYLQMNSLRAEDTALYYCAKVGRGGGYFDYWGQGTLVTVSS

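The starting antibody came from a phage panning campaign against this peptide. The library (AAYL51) carries one to three amino acid substitutions per variant, with no insertions or deletions. The assay is AlphaSeq: two haploid yeast populations carry antibody and antigen on their surface. Pairs that bind mate more often; barcode pairs of the diploids are counted by sequencing. Each replicate has its own calibration line, from reference interactions of the BCL2 family. There are three technical replicates.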

The parent's heavy chain CDRs are GFTFDDYAMH, GISWNSGSIGYADSVK, VGRGGGYFDY; each variant's own CDRs replace them letter for letter.
Scale: log10 of Kd in nM, estimated from mating counts; low values are strong binders.
The mean shown is taken over the replicates in which the pair was detected.
"ND" marks a missing value. The strain was present, yet no cells mated with the target were sequenced in that replicate, which points to weak or no binding.
As a blank, each scFv also met three strains without target: over library AAYL51, 21% of these pairings were detected, typically at 4.54 and seldom below 3.26. The control count says in how many pairings with the empty strains this scFv gave a signal, with their mean in brackets.

{"CDR-H1": "GFTFDDYAMH", "CDR-H2": "GISWNSGSIGYADYVK", "CDR-H3": "VGRGGGYFRY", "log10 Kd (nM) by replicate": "1.15 0.96 0.69", "mean, log10 nM": "0.93", "signal with controls": "0/9"}
{"CDR-H1": "GFTQDDRAMH", "CDR-H2": "GISFNSGSIGYADSVK", "CDR-H3": "VGRGGGYFDY", "log10 Kd (nM) by replicate": "4.66 5.07 5.44", "mean, log10 nM": "5.06", "signal with controls": "7/9 (4.93)"}
{"CDR-H1": "GFTFDEYAMH", "CDR-H2": "RISWNSGSIGYADSVK", "CDR-H3": "VGRGPGYFDY", "log10 Kd (nM) by replicate": "ND ND ND", "mean, log10 nM": "ND", "signal with controls": "0/9"}
{"CDR-H1": "GFMFDDYAMH", "CDR-H2": "GISWYSWSIGYADSVK", "CDR-H3": "VGRGGGYFDY", "log10 Kd (nM) by replicate": "ND ND 2.83", "mean, log10 nM": "2.83", "signal with controls": "0/9"}
{"CDR-H1": "GFTFDDYAMH", "CDR-H2": "GISWNSGSIGYADSSC", "CDR-H3": "VGRGGRYFDY", "log10 Kd (nM) by replicate": "3.98 4.79 ND", "mean, log10 nM": "4.38", "signal with controls": "0/9"}
{"CDR-H1": "GMTFDDYAMH", "CDR-H2": "GISWNSGSIPYADSVK", "CDR-H3": "VGRGGGYFDL", "log10 Kd (nM) by replicate": "ND ND ND", "mean, log10 nM": "ND", "signal with controls": "0/9"}
{"CDR-H1": "GFTFDCYAMH", "CDR-H2": "GISWNSGSIGYMDSVK", "CDR-H3": "VGRGGAYFDY", "log10 Kd (nM) by replicate": "3.19 2.77 2.84", "mean, log10 nM": "2.94", "signal with controls": "6/9 (5.34)"}
{"CDR-H1": "GFTFDDYGMH", "CDR-H2": "GYSWNKGSIGYADSVK", "CDR-H3": "VGRGGGYFDY", "log10 Kd (nM) by replicate": "ND ND ND", "mean, log10 nM": "ND", "signal with controls": "0/9"}
{"CDR-H1": "GFTFDDYAMH", "CDR-H2": "VISWASGWIGYADSVK", "CDR-H3": "VGRGGGYFDY", "log10 Kd (nM) by replicate": "ND ND ND", "mean, log10 nM": "ND", "signal with controls": "0/9"}
{"CDR-H1": "GFTFDDYAMH", "CDR-H2": "GISWNSGSTGRADSVK", "CDR-H3": "VGIGGGYFDY", "log10 Kd (nM) by replicate": "ND ND ND", "mean, log10 nM": "ND", "signal with controls": "1/9 (3.92)"}
{"CDR-H1": "GKTFDDYAMH", "CDR-H2": "GISWNSGSIGYADSQK", "CDR-H3": "VGRGGGYFDY", "log10 Kd (nM) by replicate": "ND 4.23 4.35", "mean, log10 nM": "4.29", "signal with controls": "0/9"}
{"CDR-H1": "AFTFDDLAMH", "CDR-H2": "GISWNSGSIGEADSVK", "CDR-H3": "VGRGGGYFDY", "log10 Kd (nM) by replicate": "ND 4.87 ND", "mean, log10 nM": "4.87", "signal with controls": "3/9 (4.67)"}
{"CDR-H1": "GITFDDYAMH", "CDR-H2": "GIEWNSGGIGYADSVK", "CDR-H3": "VGRGGGYFDY", "log10 Kd (nM) by replicate": "ND ND ND", "mean, log10 nM": "ND", "signal with controls": "2/9 (3.18)"}
{"CDR-H1": "GFHFDDYAMK", "CDR-H2": "GISWNSGRIGYADSVK", "CDR-H3": "VGRGGGYFDY", "log10 Kd (nM) by replicate": "ND ND ND", "mean, log10 nM": "ND", "signal with controls": "1/9 (2.26)"}
{"CDR-H1": "LFTFDDYAMH", "CDR-H2": "PISWNSGSIGYADSVK", "CDR-H3": "VGPGGGYFDY", "log10 Kd (nM) by replicate": "5.55 6.25 ND", "mean, log10 nM": "5.90", "signal with controls": "6/9 (4.99)"}
{"CDR-H1": "GFTFDRYAMH", "CDR-H2": "GISWNSGSIGYADSVK", "CDR-H3": "VGCGGGAFDY", "log10 Kd (nM) by replicate": "0.97 0.98 0.82", "mean, log10 nM": "0.92", "signal with controls": "6/9 (4.97)"}
{"CDR-H1": "GFTPDDYAVH", "CDR-H2": "GISWNSGSIAYADSVK", "CDR-H3": "VGRGGGYFDY", "log10 Kd (nM) by replicate": "ND ND ND", "mean, log10 nM": "ND", "signal with controls": "0/9"}
{"CDR-H1": "GFTFDDYAMW", "CDR-H2": "GISWNSGSIGYADSKK", "CDR-H3": "VGRGGGAFDY", "log10 Kd (nM) by replicate": "ND ND ND", "mean, log10 nM": "ND", "signal with controls": "0/9"}
{"CDR-H1": "GQTFDDYAMH", "CDR-H2": "GMSWNSGSKGYADSVK", "CDR-H3": "VGRGGGYFDY", "log10 Kd (nM) by replicate": "ND ND ND", "mean, log10 nM": "ND", "signal with controls": "0/9"}
{"CDR-H1": "GFTFDQYAMH", "CDR-H2": "GISWNTGSIGHADSVK", "CDR-H3": "VGRGGGYFDY", "log10 Kd (nM) by replicate": "ND ND ND", "mean, log10 nM": "ND", "signal with controls": "0/9"}
{"CDR-H1": "GPTFDDYAMH", "CDR-H2": "GISWNSGSIGYADWVK", "CDR-H3": "VGGGGGYFDY", "log10 Kd (nM) by replicate": "ND ND ND", "mean, log10 nM": "ND", "signal with controls": "0/9"}
{"CDR-H1": "GFTFDDYAMH", "CDR-H2": "GISWNSGSVGYNDSVK", "CDR-H3": "VGRGGGYCDY", "log10 Kd (nM) by replicate": "2.05 2.15 1.85", "mean, log10 nM": "2.02", "signal with controls": "7/9 (5.66)"}
{"CDR-H1": "GFTFDDYAMH", "CDR-H2": "GISWSSGNIGYADSVK", "CDR-H3": "VGHGGGYFDY", "log10 Kd (nM) by replicate": "ND ND ND", "mean, log10 nM": "ND", "signal with controls": "1/9 (4.79)"}

From the list, the first 3 with no signal in any replicate:

{"CDR-H1": "GFTFDEYAMH", "CDR-H2": "RISWNSGSIGYADSVK", "CDR-H3": "VGRGPGYFDY", "log10 Kd (nM) by replicate": "ND ND ND", "mean, log10 nM": "ND", "signal with controls": "0/9"}
{"CDR-H1": "GMTFDDYAMH", "CDR-H2": "GISWNSGSIPYADSVK", "CDR-H3": "VGRGGGYFDL", "log10 Kd (nM) by replicate": "ND ND ND", "mean, log10 nM": "ND", "signal with controls": "0/9"}
{"CDR-H1": "GFTFDDYGMH", "CDR-H2": "GYSWNKGSIGYADSVK", "CDR-H3": "VGRGGGYFDY", "log10 Kd (nM) by replicate": "ND ND ND", "mean, log10 nM": "ND", "signal with controls": "0/9"}

For reference, the parent read 1.86 as the reference entry and 0.88 as a member of this library.

From the AlphaSeq antibody data of Engelhart et al. 2022 (doi:10.1038/s41597-022-01779-4), copy in the FLAb collection.